Results: paper PMC2677886 (Nucleic Acids Research, 2009)

How the values were obtained:
[1] = molecular target: MRE11–RAD50–NBS1 (MRN) complex, recombinant (human, UniProt P49959; Q92878; O60934); assay: pull-down
[2] = molecular target: MRE11–RAD50 (MR) complex, recombinant (human, UniProt P49959; Q92878); assay: pull-down

binding result [1]: binds | binding result [2]: binds
B1: RECQ5–CBD fusion protein (natural protein, human, UniProt O94762 1-991, looked up)
chain: MSSHHTTFPFDPERRVRSTLKKVFGFDSFKTPLQESATMAVVKGNKDVFVCMPTGAGKSLCYQLPALLAKGITIVVSPLIALIQDQVDHLLTLKVRVSSLNSKLSAQERKELLADLEREKPQTKILYITPEMAASSSFQPTLNSLVSRHLLSYLVVDEAHCVSQWGHDFRPDYLRLGALRSRLGHAPCVALTATATPQVQEDVFAALHLKKPVAIFKTPCFRANLFYDVQFKELISDPYGNLKDFCLKALGQEADKGLSGCGIVYCRTREACEQLAIELSCRGVNAKAYHAGLKASERTLVQNDWMEEKVPVIVATISFGMGVDKANVRFVAHWNIAKSMAGYYQESGRAGRDGKPSWCRLYYSRNDRDQVSFLIRKEVAKLQEKRGNKASDKATIMAFDALVTFCEELGCRHAAIAKYFGDALPACAKGCDHCQNPTAVRRRLEALERSSSWSKTCIGPSQGNGFDPELYEGGRKGYGDFSRYDEGSGGSGDEGRDEAHKREWNLFYQKQMQLRKGKDPKIEEFVPPDENCPLKEASSRRIPRLTVKAREHCLRLLEEALSSNRQSTRTADEADLRAKAVELEHETFRNAKVANLYKASVLKKVADIHRASKDGQPYDMGGSAKSCSAQAEPPEPNEYDIPPASHVYSLKPKRVGAGFPKGSCPFQTATELMETTRIREQAPQPERGGEHEPPSRPCGLLDEDGSEPLPGPRGEVPGGSAHYGGPSPEKKAKSSSGGSSLAKGRASKKQQLLATAAHKDSQSIARFFCRRVESPALLASAPEAEGACPSCEGVQGPPMAPEKYTGEEDGAGGHSPAPPQTEECLRERPSTCPPRDQGTPEVQPTPAKDTWKGKRPRSQQENPESQPQKRPRPSAKPSVVAEVKGSVSASEQGTLNPTAQDPFQLSAPGVSLKEAANVVVKCLTPFYKEGKFASKELFKGFARHLSHLLTQKTSPGRSVKEEAQNLIRHFFHGRARCESEADWHGLCGPQR
